This series in a line: Solubility of psilocin salts in saline. The note with it: for Solubility / Average Solubility / solubility at 5 h: 5 hrs; for solubility at 5 h: 25 °C, saline or isotonic, thermodynamic from solid.
[1] abbreviates: Saline, single replicate, updated summary (Table 10).
The mark [2] stands for this setting: Saline, updated summary (Table 10).
[3] abbreviates: saline, 25° C., max 10 mg/mL free base (Table 9).
The mark [4] stands for this setting: saline, 25° C., single replicate, max 10 mg/mL free base (Table 9).
The mark [5] stands for this setting: saline, 25° C., 750 rpm, maximum anticipated concentration 10 mg/mL of free base (Table 9).

“And” between values parts separate entries of the source, which are not always exact repeats. Equal entries are not always repeated. Structures can show the parent of a compound that is named as a salt.

One may read the Solubility as the dissolved amount per volume that the medium holds. A word on the solubility: it is the dissolved amount per volume that the medium holds.

Turning to `CN(C)CCc1c[nH]c2cccc(O)c12.O=S(=O)(O)c1cccc2c(S(=O)(=O)O)cccc12` [Psilocin 1,5-napthalenedisulfonate NAP Pattern 1], the Solubility is, setting by setting: under setting [1], 7.0 mg/mL and 7.1 mg/mL; under setting [4], 7.0 mg/mL and 7.1 mg/mL. The “Average Solubility” value under setting [2] was found to be 7.1 mg/mL and the “Average Solubility” value under setting [3] is recorded as 7.1 mg/mL. Under setting [2], the “Appearance at 5 hrs” value was “Grey/blue suspension”.

In the case of `CN(C)CCc1c[nH]c2cccc(O)c12.O=C(O)c1ccccc1` [Psilocin benzoate BEN Pattern 1, Psilocin benzoate], the Solubility under setting [1] was 5.0 mg/mL and 4.9 mg/mL; the Solubility under setting [4] is 5.0 mg/mL and 4.9 mg/mL. Also, the “Average Solubility” value is, setting by setting: under setting [2], 5.0 mg/mL; under setting [3], 5.0 mg/mL. In addition, the “Appearance at 5 hrs” value reads like this: under setting [2], “Grey suspension”; under setting [5], “Grey suspension”.

With `CN(C)CCc1c[nH]c2cccc(O)c12` [Psilocin free base, Psilocin], the “Appearance at 5 hrs” value is, setting by setting: under setting [2], “Grey suspension”; under setting [5], “Grey suspension”. Also, the solubility at 5 h by setting is: (saline, Average Solubility, max 10 mg/mL free base (Table 9)) 0.76 mg/mL; (saline, Solubility, single replicate, max 10 mg/mL free base (Table 9)) 0.78 mg/mL.

As for `CN(C)CCc1c[nH]c2cccc(O)c12` [Psilocin hydrochloride HCl Pattern 1, Psilocin hydrochloride], the “Appearance at 5 hrs” value (saline, 25° C., 750 rpm, maximum anticipated concentration 10 mg/mL of free base (Table 9), hydrochloride) is “Clear solution”.

Take `CN(C)CCc1c[nH]c2cccc(O)c12.O=C(O)c1ccccc1O` [Psilocin salicylate SAL Pattern 1, Psilocin salicylate]: the Solubility runs as follows: under setting [1], 5.5 mg/mL and 6.0 mg/mL; under setting [4], 5.5 mg/mL and 6.0 mg/mL. In addition, the “Average Solubility” value under setting [2] is recorded as 5.8 mg/mL and the “Average Solubility” value under setting [3] is reported as 5.8 mg/mL. In addition, the “Appearance at 5 hrs” value is given as “Grey/blue suspension” under setting [2] and “Grey suspension” under setting [5].

As to “Psilocin succinate [Psilocin succinate SUC Pattern 3]”, the Solubility under setting [1] was >28 mg/mL and >25 mg/mL. In addition, under setting [2], the “Average Solubility” value was over 27 mg/mL and the “Appearance at 5 hrs” value is “Clear solution”. In addition, under setting [5], the “Appearance at 5 hrs” value is listed as “Clear solution”.

Source of the values: patent US11680043B2, “Pharmaceutically acceptable salts of psilocin and uses thereof” (priority 2021, dated 2023).
